# Measured values from PubChem BioAssay AID588675 (Johns Hopkins Ion Channel Center, 2011).
# By UniProt entry, the sequences of proteins in these tests, tags left out.
# UniProt Q96LB2, whole entry: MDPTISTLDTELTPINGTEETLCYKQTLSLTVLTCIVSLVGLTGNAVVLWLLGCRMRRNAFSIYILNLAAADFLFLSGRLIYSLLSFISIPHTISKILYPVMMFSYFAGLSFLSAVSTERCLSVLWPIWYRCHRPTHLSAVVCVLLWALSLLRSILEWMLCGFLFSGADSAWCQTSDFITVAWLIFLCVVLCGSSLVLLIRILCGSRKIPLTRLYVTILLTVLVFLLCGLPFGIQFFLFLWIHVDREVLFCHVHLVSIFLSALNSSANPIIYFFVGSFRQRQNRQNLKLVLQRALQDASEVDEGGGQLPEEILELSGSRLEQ
# The list shows a part of the results, in another mix than the full data. The source made the active and inactive calls.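 The calls were made as follows: active = plate-corrected calcium response at least 3 library SD above typical, normal starting fluorescence, not activating the receptor alone; inactive = the rest.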
# Molecular target: Mas-related G-protein coupled receptor member X1 (Homo sapiens) (UniProt Q96LB2)
# Experiment: positive allosteric modulators of MrgX1, primary screen, HEK293 cells, Fluo-4 calcium flux (AID 588675);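 also: compound read alongside a low EC10 to EC30 dose of BAM8-22 agonist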;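 as to B-score: peak minus trough fluorescence over baseline measured at the second addition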
# Details: MrgX1-HEK293, Fluo-4 calcium flux, FDSS, at 10 µM; active compounds read high
Compound,outcome,B-score
COc1cc(C(=O)NCC2(N3CCCCC3)CCCCC2)ccc1OC(F)F,inactive,
O=C(NCC1(N2CCOCC2)CCCCC1)c1cc(=O)[nH]c2ccccc12,inactive,
CN1CCN(CCOC(=O)C(O)(c2ccccc2)c2ccccc2)CC1,inactive,
COc1ccc(NC2CCN(C(=O)OC(C)(C)C)CC2)cc1,inactive,
O=C(NCC1(N2CCCCC2)CCCCC1)c1cccc(C(F)(F)F)c1,inactive,
N#CC1(Nc2ccccc2)CCN(CCc2ccccc2)CC1,inactive,
CCN1CCC(Nc2ccc(Cl)cc2)CC1,inactive,
O=C(NCC1(N2CCCCC2)CCCCC1)c1cccc([N+](=O)[O-])c1,inactive,
O=C(NCC1(N2CCCCC2)CCCCC1)c1ccc(OC(F)F)cc1,inactive,
CCCOc1ccc(C(=O)NCC2(N(C)C)CCCCC2)cc1OC,inactive,
CN1CCC(Nc2cccc(F)c2)CC1,inactive,
COc1cc(OC)c(C(=O)NCC2(N(C)C)CCCCC2)cc1OC,inactive,
CC(C)c1ccc(NC2CCN(C(=O)OC(C)(C)C)CC2)cc1,inactive,
CN(C)c1cccc(C(=O)NCC2(N3CCCCC3)CCCCC2)c1,inactive,
COc1ccc(CN(CCCl)CCCl)cc1Cl,inactive,
O=C(OC1CN2CCC1CC2)C1c2ccccc2Oc2ccccc21 (centres undefined),inactive,
N#CC1(Nc2ccccc2)CCN(Cc2ccccc2)CC1,inactive,
CCOC(=O)N1CCC(Nc2ccc(OC)cc2)CC1,inactive,
Cc1cc(C)cc(N(C(=O)c2ccccc2)C2CCN(C(=O)OC(C)(C)C)CC2)c1,inactive,
O=C(NCC1(N2CCCCC2)CCCCC1)c1ccc(Cl)nc1,inactive,

Compound,outcome,B-score
O=C(NCC1(N2CCOCC2)CCCCC1)c1cc2ccccc2o1,inactive,
CSc1ccccc1C(=O)NCC1(N2CCCCC2)CCCCC1,inactive,
COc1ccc(C(=O)NCC2(N3CCCCC3)CCCCC2)c(OC)c1OC,inactive,
CC(C)(C)OC(=O)N1CCC(N(C(=O)c2ccccc2)c2ccc(F)cc2)CC1,inactive,
COc1ccc(C(=O)NCC2(N3CCCCC3)CCCCC2)cc1,inactive,
O=C(NCC1(N2CCCCC2)CCCCC1)c1cccs1,inactive,
O=C(NCC1(N2CCCCC2)CCCCC1)c1ccc(=O)[nH]c1,inactive,
Cc1ccc(OCC(C)C)c(CN(CCCl)CCCl)c1,inactive,
COc1cc(C(=O)NCC2(N(C)C)CCCCC2)ccc1OC(F)F,inactive,
CCOC(=O)N1CCC(Nc2cccc(C)c2)CC1,inactive,
COc1ccc(NC2CCN(CCc3ccccc3)CC2)c(OC)c1,inactive,
CCOC(=O)N1CCC(Nc2ccc(F)cc2)CC1,inactive,
O=C(NCC1(N2CCCCC2)CCCCC1)c1ccc(F)cc1,inactive,
CCOc1ccc(C)cc1CN(CCCl)CCCl,inactive,
CN(C)c1ccc(C(=O)NCC2(N3CCCCC3)CCCCC2)cc1,inactive,
CCN1CCC(Nc2cccc(F)c2)CC1,inactive,
Fc1ccccc1NC1CCN(Cc2ccccc2)CC1,inactive,
Cc1ccc(C(=O)NCC2(N3CCCCC3)CCCCC2)o1,inactive,
COc1cc(OC)cc(C(=O)NCC2(N3CCCCC3)CCCCC2)c1,inactive,
CN1CCC(Nc2ccc(Cl)cc2)CC1,inactive,

Compound,outcome,B-score
CCCOc1ccc(C)cc1CN(CCCl)CCCl,inactive,
COc1cc(OC)cc(C(=O)NCC2(N3CCOCC3)CCCCC2)c1,inactive,
COc1cccc(C(=O)N(c2cc(C)cc(C)c2)C2CCN(C(=O)OC(C)(C)C)CC2)c1,inactive,
CCC(CO)(C(=O)OC1CN2CCC1CC2)c1ccccc1 (centres undefined),inactive,
O=C(O)C1(Nc2ccccc2)CCN(Cc2ccccc2)CC1,inactive,
CC(C)(C)OC(=O)N1CCC(Nc2ccccc2)CC1,inactive,
CCCOc1ccc(C(=O)NCC2(N(C)C)CCCCC2)cc1,inactive,
CN1CCC(Nc2ccc(F)c(Cl)c2)CC1,inactive,
CCOc1ncccc1C(=O)NCC1(N2CCOCC2)CCCCC1,inactive,
O=C(OC1CN2CCC1CC2)C1c2ccccc2C=Cc2ccccc21 (centres undefined),inactive,
CCc1cc(C(=O)NCC2(N3CCCCC3)CCCCC2)sc1C,,active: 7.72
CCOC(=O)N1CCC(Nc2ccc(C)cc2)CC1,inactive,
N/C(=N\O)c1c(N)no[n+]1[O-],inactive,
COc1ccc(C(=O)NCC2(N3CCOCC3)CCCCC2)cc1OC,inactive,
CN(C)C1(CNC(=O)c2cccc(C#N)c2)CCCCC1,inactive,
CCCN1CCC(Nc2cc(OC)cc(OC)c2)CC1,inactive,
c1ccc(CN2CCC(Nc3ccccc3)CC2)cc1,inactive,
N#Cc1ccc(C(=O)NCC2(N3CCCCC3)CCCCC2)cc1,inactive,
CC(C)(C)OC(=O)N1CCC(N(C(=O)c2ccccc2)c2ccc(Cl)cc2)CC1,inactive,
